## CycPeptMPDB entries from one study

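The data file gives no further conditions (lipid, pH, time, direction or concentration), and values from different papers need not be comparable. The list need not hold all peptides of the study. Entries at the database's floor value (log10 P of -10) are not listed.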

PAMPA measures passive passage through an artificial lipid membrane.
Values are log10 P with P in cm/s, so -5 is more permeable than -7.

structure (SMILES) | PAMPA (log10 cm/s)
CCCC[C@@H]1NC(=O)[C@@H](CC(C)C)NC(=O)CN(CC2CCCCC2)C(=O)[C@@H](C)NC(=O)CN(CC)C(=O)[C@H]2CCCN2C1=O | -6.00
CCCC[C@@H]1NC(=O)[C@H](CC(C)C)N(C)C(=O)CN(CC2CCOCC2)C(=O)[C@@H](Cc2ccccc2)NC(=O)CN(CC)C(=O)[C@@H]2CCCN2C1=O | -6.73
CCCCCN1CC(=O)N(C)[C@@H](CC(C)C)C(=O)N[C@@H](CCCC)C(=O)N2CCC[C@@H]2C(=O)N(Cc2ccc3c(c2)OCO3)CC(=O)N[C@H](Cc2ccccc2)C1=O | -5.45
CCCC[C@@H]1NC(=O)[C@@H](CC(C)C)N(C)C(=O)CN(CC2CCCCC2)C(=O)[C@H](Cc2ccccc2)NC(=O)CN(CC)C(=O)[C@H]2CCCN2C1=O | -5.43
CCCCCN1CC(=O)N[C@H](CC(C)C)C(=O)N[C@@H](CCCC)C(=O)N2CCC[C@@H]2C(=O)N(CC)CC(=O)N[C@@H](Cc2ccccc2)C1=O | -4.81
CCCC[C@@H]1NC(=O)[C@H](CC(C)C)NC(=O)CN(CC2CCCCC2)C(=O)[C@H](C)NC(=O)CN(CC)C(=O)[C@H]2CCCN2C1=O | -6.11
CCCCCN1CC(=O)N(C)[C@H](CC(C)C)C(=O)N[C@@H](CCCC)C(=O)N2CCC[C@H]2C(=O)N(CCCOC(C)C)CC(=O)N[C@@H](Cc2ccccc2)C1=O | -5.08
CCCC[C@@H]1NC(=O)[C@H](CC(C)C)N(C)C(=O)CN(CC2CCCCC2)C(=O)[C@H](Cc2ccccc2)NC(=O)CN(CC)C(=O)[C@H]2CCCN2C1=O | -5.54
CCCC[C@@H]1NC(=O)[C@@H](CC(C)C)N(C)C(=O)CN(CC2CCCCC2)C(=O)[C@@H](Cc2ccccc2)NC(=O)CN(CC)C(=O)[C@@H]2CCCN2C1=O | -4.90
CCCC[C@@H]1NC(=O)[C@H](CC(C)C)N(C)C(=O)CN(CC2CCOCC2)C(=O)[C@H](Cc2ccccc2)NC(=O)CN(CC)C(=O)[C@H]2CCCN2C1=O | -5.18
CCCC[C@@H]1NC(=O)[C@H](CC(C)C)N(C)C(=O)CN(CC2CCCCC2)C(=O)[C@@H](Cc2ccccc2)NC(=O)CN(CCCOC(C)C)C(=O)[C@H]2CCCN2C1=O | -5.15
CCCCCN1CC(=O)N[C@@H](CC(C)C)C(=O)N[C@@H](CCCC)C(=O)N2CCC[C@@H]2C(=O)N(CCCOC(C)C)CC(=O)N[C@H](Cc2ccccc2)C1=O | -5.19
CCCC[C@@H]1NC(=O)[C@H](CC(C)C)NC(=O)CN(CC2CCOCC2)C(=O)[C@H](C)NC(=O)CN(CC)C(=O)[C@@H]2CCCN2C1=O | -8.00
CCCCCN1CC(=O)N[C@H](CC(C)C)C(=O)N[C@@H](CCCC)C(=O)N2CCC[C@@H]2C(=O)N(CCCOC(C)C)CC(=O)N[C@H](Cc2ccccc2)C1=O | -5.03
CCCC[C@@H]1NC(=O)[C@H](CC(C)C)NC(=O)CN(CC2CCCCC2)C(=O)[C@H](Cc2ccccc2)NC(=O)CN(Cc2ccc3c(c2)OCO3)C(=O)[C@H]2CCCN2C1=O | -5.71
CCCCCN1CC(=O)N(C)[C@H](CC(C)C)C(=O)N[C@@H](CCCC)C(=O)N2CCC[C@H]2C(=O)N(CC)CC(=O)N[C@@H](Cc2ccccc2)C1=O | -4.85
CCCCCN1CC(=O)N[C@H](CC(C)C)C(=O)N[C@@H](CCCC)C(=O)N2CCC[C@@H]2C(=O)N(Cc2ccc3c(c2)OCO3)CC(=O)N[C@H](C)C1=O | -5.31
CCCCCN1CC(=O)N(C)[C@@H](CC(C)C)C(=O)N[C@@H](CCCC)C(=O)N2CCC[C@@H]2C(=O)N(CCCOC(C)C)CC(=O)N[C@@H](C)C1=O | -4.88
CCCCCN1CC(=O)N[C@@H](CC(C)C)C(=O)N[C@@H](CCCC)C(=O)N2CCC[C@@H]2C(=O)N(CCCOC(C)C)CC(=O)N[C@@H](C)C1=O | -5.84

Repeated from above, the 2 entries with the highest PAMPA:

structure (SMILES)	PAMPA (log10 cm/s)
CCCCCN1CC(=O)N[C@H](CC(C)C)C(=O)N[C@@H](CCCC)C(=O)N2CCC[C@@H]2C(=O)N(CC)CC(=O)N[C@@H](Cc2ccccc2)C1=O	-4.81
CCCCCN1CC(=O)N(C)[C@H](CC(C)C)C(=O)N[C@@H](CCCC)C(=O)N2CCC[C@H]2C(=O)N(CC)CC(=O)N[C@@H](Cc2ccccc2)C1=O	-4.85

Collected by the curators of CycPeptMPDB (Li et al. 2023) from Furukawa et al. 2016, doi:10.1021/acs.jmedchem.6b01246.